Experiment [1] deals with T1, Tyrosine-protein kinase JAK1 (Homo sapiens, UniProt P23458).
Experiment [2] addresses T2, Tyrosine-protein kinase JAK2 (Homo sapiens, UniProt O60674).
The target in experiment [3] is T2, Tyrosine-protein kinase JAK2. The source holds these as a separate data set.
Experiment [4] has as its target T1, Tyrosine-protein kinase JAK1. The source holds these as a separate data set.

Chains of the proteins cited; added tags and fusions are not shown. Lines headed by an entry give the natural chain unless they say otherwise; changes in a name come on top.
UniProt P23458: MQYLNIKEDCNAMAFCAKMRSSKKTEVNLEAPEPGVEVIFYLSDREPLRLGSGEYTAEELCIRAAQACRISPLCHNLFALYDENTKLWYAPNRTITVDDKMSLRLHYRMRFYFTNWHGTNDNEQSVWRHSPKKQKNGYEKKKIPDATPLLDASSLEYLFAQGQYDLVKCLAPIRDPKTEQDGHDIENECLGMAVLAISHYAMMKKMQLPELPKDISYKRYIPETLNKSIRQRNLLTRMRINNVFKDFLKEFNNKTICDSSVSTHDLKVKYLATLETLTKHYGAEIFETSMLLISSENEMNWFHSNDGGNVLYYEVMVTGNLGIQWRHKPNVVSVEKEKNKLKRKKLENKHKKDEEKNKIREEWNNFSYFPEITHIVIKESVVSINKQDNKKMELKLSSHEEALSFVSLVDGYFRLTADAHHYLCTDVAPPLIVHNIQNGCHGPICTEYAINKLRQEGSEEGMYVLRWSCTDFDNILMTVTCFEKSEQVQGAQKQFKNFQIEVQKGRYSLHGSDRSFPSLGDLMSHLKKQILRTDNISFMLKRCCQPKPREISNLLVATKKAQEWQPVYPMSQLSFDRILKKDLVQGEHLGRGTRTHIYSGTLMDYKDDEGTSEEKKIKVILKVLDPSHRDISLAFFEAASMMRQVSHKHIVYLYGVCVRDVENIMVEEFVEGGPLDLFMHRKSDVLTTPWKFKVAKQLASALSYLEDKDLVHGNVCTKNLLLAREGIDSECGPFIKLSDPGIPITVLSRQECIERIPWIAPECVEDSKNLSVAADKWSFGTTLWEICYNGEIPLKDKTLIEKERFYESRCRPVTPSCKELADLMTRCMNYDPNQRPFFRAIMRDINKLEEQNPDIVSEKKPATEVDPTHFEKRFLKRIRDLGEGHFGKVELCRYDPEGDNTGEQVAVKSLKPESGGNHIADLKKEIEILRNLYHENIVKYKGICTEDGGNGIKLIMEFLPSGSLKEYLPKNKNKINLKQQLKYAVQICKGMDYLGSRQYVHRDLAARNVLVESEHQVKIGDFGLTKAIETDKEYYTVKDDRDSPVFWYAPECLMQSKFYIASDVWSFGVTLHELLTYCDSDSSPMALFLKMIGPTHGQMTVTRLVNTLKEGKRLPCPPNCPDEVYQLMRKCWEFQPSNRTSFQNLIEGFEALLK
UniProt O60674: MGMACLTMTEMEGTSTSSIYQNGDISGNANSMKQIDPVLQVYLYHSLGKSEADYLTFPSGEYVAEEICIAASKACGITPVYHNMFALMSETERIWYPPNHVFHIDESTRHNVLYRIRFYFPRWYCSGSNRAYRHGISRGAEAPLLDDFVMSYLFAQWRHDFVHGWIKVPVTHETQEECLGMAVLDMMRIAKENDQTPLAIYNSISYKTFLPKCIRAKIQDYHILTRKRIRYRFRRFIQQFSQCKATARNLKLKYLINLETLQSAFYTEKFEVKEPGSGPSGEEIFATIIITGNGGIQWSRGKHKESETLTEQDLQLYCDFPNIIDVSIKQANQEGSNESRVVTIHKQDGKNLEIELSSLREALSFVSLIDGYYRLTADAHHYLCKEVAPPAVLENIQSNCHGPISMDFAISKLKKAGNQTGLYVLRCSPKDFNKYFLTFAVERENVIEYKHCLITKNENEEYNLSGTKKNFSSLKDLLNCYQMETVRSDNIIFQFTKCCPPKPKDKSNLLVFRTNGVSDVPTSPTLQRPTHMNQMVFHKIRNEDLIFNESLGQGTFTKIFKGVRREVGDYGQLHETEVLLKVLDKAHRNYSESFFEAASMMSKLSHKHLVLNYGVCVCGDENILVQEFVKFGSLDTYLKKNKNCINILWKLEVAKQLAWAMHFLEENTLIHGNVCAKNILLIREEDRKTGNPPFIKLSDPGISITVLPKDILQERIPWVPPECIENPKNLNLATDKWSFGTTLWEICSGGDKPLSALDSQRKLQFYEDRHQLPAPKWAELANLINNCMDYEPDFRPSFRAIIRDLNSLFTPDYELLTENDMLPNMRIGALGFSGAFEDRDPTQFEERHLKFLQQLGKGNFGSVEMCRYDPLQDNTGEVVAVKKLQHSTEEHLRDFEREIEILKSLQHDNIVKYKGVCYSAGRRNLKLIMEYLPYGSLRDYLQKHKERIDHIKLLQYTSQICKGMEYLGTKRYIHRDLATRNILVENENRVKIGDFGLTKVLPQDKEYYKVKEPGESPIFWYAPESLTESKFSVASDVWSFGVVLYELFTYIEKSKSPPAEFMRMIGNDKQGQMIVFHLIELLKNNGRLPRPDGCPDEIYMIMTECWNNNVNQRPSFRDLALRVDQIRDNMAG

Broadly, the IC50 is the midpoint of a concentration-inhibition curve. The low end stands for higher potency, the high end for lower potency. `N#C[C@H]1C[C@@H](O)CC[C@@H]1n1cc(C(N)=O)c(Nc2ccc(Cl)cc2)n1`: inhibition in experiment [1] was half-maximal at 1.2 nM (IC50). Regarding `N#C[C@H]1CCOC[C@@H]1n1cc(C(N)=O)c(Nc2ccccc2)n1`, the IC50 in experiment [2] came to 209 nM; in experiment [3], 3 nM.

Turning to `N#C[C@H]1CCOC[C@@H]1n1cc(C(N)=O)c(Nc2ccc([C@H](O)C(F)(F)F)cc2)n1`, the IC50 was found to be 48 nM in experiment [2], 0.05 nM in experiment [1], 0.47 nM in experiment [3] and 14 nM in experiment [4].

For the compound `N#C[C@H]1CCOC[C@@H]1n1cc(C(N)=O)c(Nc2ccc(Cl)cc2)n1`, the results for the IC50 in experiment [2] and in experiment [3] were 140 nM and 1.5 nM, respectively. In experiment [1], `N#C[C@H]1C[C@@H](N2CCC2)CC[C@@H]1n1cc(C(N)=O)c(Nc2ccc([C@H](O)C(F)(F)F)cc2)n1` had an IC50 of 0.3 nM. Compound `CN([C@H]1CC[C@H](n2cc(C(N)=O)c(Nc3ccc(Cl)cc3)n2)[C@@H](C#N)C1)C1(C)COC1` registered a 50% inhibitory concentration (IC50) in experiment [1] of 0.6 nM.

The compound `N#C[C@H]1CCCC[C@@H]1n1cc(C(N)=O)c(Nc2ccccc2)n1` displayed an IC50 in experiment [1] of 3 nM. For the compound `N#C[C@H]1CCOC[C@@H]1n1cc(C(N)=O)c(Nc2ccnc(F)c2)n1`, the 50% inhibitory concentration (IC50) in experiment [1] was determined as 0.24 nM; in experiment [4], 42 nM.

(Values after ChEMBL document CHEMBL4028908, “The Discovery of 3-((4-Chloro-3-methoxyphenyl)amino)-1-((3R,4S)-4-cyanotetrahydro-2H-pyran-3-yl)-1H-pyrazole-4-carboxamide, a Highly Ligand Efficient and Efficacious Janus Kinase 1 Selective Inhibitor with Favorable Pharmacokinetic Properties” (J Med Chem, 2017).)
